Substrate in the series: NC(=O)CCC(N)C(=O)Nc1ccc2ccccc2c1
Nature of the series: Continuous spectrophotometric QC assay (glutamate dehydrogenase coupled), substrate kinetics.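 Further: initial rates read on a microplate reader at 30 °C, with enzyme activity quantified against an ammonia calibration curve under the same assay conditions.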 Type of series: biochemical. Particulars: other: Human QC; pH 8.8.

kcat/Km data for 1 protein are collected here from patent US8809010B2, “Method for prophylactic treatment of alzheimer's disease using inhibitors of glutaminyl cyclase and glutamate cyclases” (Probiodrug AG, priority 2003, dated 2014).

B1: human QC (Homo sapiens) (protein)
chain: VSPSASAWPEEKNYHQPAILNSSALRQIAEGTSISEMWQNDLQPLLIERYPGSPGSYAARQHIMQRIQRLQADWVLEIDTFLSQTPYGYRSFSNIISTLNPTAKRHLVLACHYDSKYFSHWNNRVFVGATDSAVPCAMMLELARALDKKLLSLKTVSDSKPDLSLQLIFFDGEEAFLHWSPQDSLYGSRHLAAKMASTPHPPGARGTSQLHGMDLLVLLDLIGAPNPTFPNFFPNSARWFERLQAIEHELHELGLLKDHSLEGRYFQNYSYGGVIQDDHIPFLRRGVPVLHLIPSPFPEVWHTMDDNEENLDESTIDNLNKILQVFVLEYLHL
notes: The cDNA of the mature QC starting with codon 38 was fused in frame with the plasmid encoded 6× histidine tag; 6xHis; made in house; host or cells: Pichia pastoris X33 (pPICZαB, secreted); also E. coli M15 (pQE-31)
Regarding B1, the kcat/Km was 294000 ± 6000 M⁻¹ s⁻¹.

The term kcat/Km denotes the turnover number divided by the Michaelis constant.
